According to ChEMBL document CHEMBL1138832, “N2-substituted O6-cyclohexylmethylguanine derivatives: potent inhibitors of cyclin-dependent kinases 1 and 2” (J Med Chem, 2004):

Target: Cyclin-dependent kinase 2/cyclin A (Homo sapiens, UniProt P24941)
Test: Inhibition of cyclin-dependent kinase 2-cyclin A3 (CDK2)
Assay type: protein-complex assay

Compound	IC50 [µM]
CS(=O)(=O)c1ccc(Nc2nc(OCC3CCCCC3)c3[nH]cnc3n2)cc1	63
C[S+]([O-])c1ccc(Nc2nc(OCC3CCCCC3)c3[nH]cnc3n2)cc1 (configuration not stated)	0.1
